Source: PubChem BioAssay (National Center for Advancing Translational Sciences (NCATS))
G9a inh – blocks human histone lysine methyltransferase G9a. Q96KQ7. G9a H3K9 monomethylation, AlphaScreen, 2 h. Potency, µM (highest dose often 102 µM), without a hit: at the highest dose activity, negative = inhibition, most hits filed as inhibitors. 350,000 tested, 8.8% active. AID 504332; further: potency means the concentration at half of the fitted maximal effect; on the % scale 0 is the no-effect control and ±100 the full control effect; nearly all actives have a fitted effect of over 75% in size
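Enzyme 20 nM + cpd, 15 min RT; add b-H3K9 pep 500 nM / SAM 20 uM; 2 h RT; anti-H3K9me1 Ab 0.5 ug/mL + SA donor / anti-rabbit acceptor beads 20 ug/mL each, 10 min; AlphaScreen read.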
Sfp PPTase inh – qHTS Assay for Inhibitors of Bacillus subtilis Sfp phosphopantetheinyl transferase (PPTase) | 4'-phosphopantetheinyl transferase ffp (Bacillus subtilis), Q9F4F7 | Biochemical Sfp PPTase activity, qHTS | Potency, µM, for inactives: max response, negative = inhibition, hits mostly inhibitors | 3.5% of 310,000 active | AID 1490, 2009; active = well fitted inhibition curve with a large enough effect; inconclusive = small, poorly fitted or top-dose-only effect, or another doubt; inactive = no such curve, though single readings can be large or run the other way;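 also: the enzyme is Sfp with the accession as filed and its product quenches rhodamine fluorescence; potency is read from the fitted curve at half-maximal effect; 0% = enzyme reaction without inhibitor and -100% = no enzyme wells; top concentration of the series not given in the record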
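After 15 min at room temperature with compound, 15 nM Sfp received 5 uM rhodamine-CoA plus 12.5 uM BHQ-2-ybbR (50 mM Hepes pH 7.6, 10 mM MgCl2). Rate came from the fluorescence difference over 30 min, ex 525/em 598 nm.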
miR-21 reporter – miR-21 reporter, rising signal | AID 2288 | HeLa miR-21 FLuc reporter, luciferase, 48 h | 340,000 tested, under 10 active | Potency, µM (doses to about 38.3 µM), for inactives: at the top dose reporter change, positive = more light; active = well fitted rising curve with a large enough effect; inconclusive = small, poorly fitted or top-dose-only effect; inactive = no such curve, though single readings can be large or run the other way;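 note: % of control where 0% means no effect; miR-21 action dims this reporter so a rising signal means less miR-21 action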
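Compounds were titrated across several concentrations (up to approximately 40 uM) and incubated 48 hours with HeLa miR-21-FLuc reporter cells (miR-21 target sequence downstream of FLuc, endogenous miR-21). Readout was firefly luciferase luminescence after lytic detection reagent.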
ALDH1A1 inh – ALDH1A1 (human) enzyme inhibition | 220,000 tested, 7.3% active | AID 1030 | P00352 | Purified ALDH1A1, NADH fluorescence, propionaldehyde substrate | Potency, µM (series often up to 75.3 µM), inactives show at the top dose activity, negative = inhibition, usual class: inhibitors; active means well fitted inhibition curve with a large enough effect, not every such curve was filed as active; inconclusive means small, poorly fitted or top-dose-only effect, or another doubt; inactive means no such curve, though single readings can be large or run the other way;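 further: potency means the concentration at half of the fitted maximal effect; plate controls were no enzyme wells and a reference inhibitor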
KDM4E inh – inhibitors of human JMJD2E histone demethylase. B2RXH2. JMJD2E catalytic domain, FDH-coupled NADH fluorescence (FDH is formaldehyde dehydrogenase). Potency, µM (titrated, usually from 57.1 µM), inactives show top-dose activity change, negative = inhibition, usual class: inhibitors. 230,000 tested, 1.6% active; active means well fitted inhibition curve with a large enough effect, not every such curve was filed as active; inconclusive means small, poorly fitted or top-dose-only effect, or another doubt; inactive means no such curve, though single readings can be large or run the other way;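 further: potency means the concentration at half of the fitted maximal effect; 0% = wells with enzyme and -100% = buffer wells without enzyme; nearly all actives have a fitted effect of over 50% in size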
LMNA splice mod – modulators of lamin A splicing; HeLa LMNA splicing GFP/RFP minigene ratio, 48 h; Potency, µM (series often up to 46.1 µM), inactives show at the highest dose ratio change, negative = inhibition, most hits filed as inhibitors; 200,000 tested, 0.01% active; active means well fitted inhibition curve with a large enough effect in the signal ratio, with a control signal flat, not every such curve was filed as active; inconclusive means small, poorly fitted or top-dose-only effect, or effect the other way, or a change in a side signal; the % refers to the signal ratio; further: potency means the concentration at half of the fitted maximal effect; on the % scale 0 is the no-effect control and ±100 the full control effect
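S3 HeLa cells stably expressing lamin A-EGFP splicing minigene plus DsRed2, 600 cells/well, 48 h compound exposure at 37C. Laser-scanning cytometry; analysed as GFP (500-530 nm)/RFP (575-640 nm) total intensity ratio; 0.5% DMSO vehicle.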
Starred values were filed as active, the others as inactive; u = inconclusive; x = no result; [ ] = dose if it differs, or a comment. Sampled rows, rich in hits. Any-hit rate of the full collection: about 13%. Unless noted, the call rests on the fitted dose curve; in most records, active means well fitted curve in the direction sought with a large enough effect; inconclusive means small, poorly fitted or top-dose-only effect, or another doubt; inactive means no such curve, though single readings can be large; an effect the other way counts as inactive or inconclusive.

Assay codes: A = G9a inh; B = Sfp PPTase inh; C = miR-21 reporter; D = ALDH1A1 inh; E = KDM4E inh; F = LMNA splice mod
COc1ccccc1CNC(=O)COC(=O)c1ccc(C)c(S(=O)(=O)N2CCOCC2)c1
  A: 4.2%[0.501 µM]; B: x; C: x; D: x; E: x; F: x
COc1ccccc1CNC(=O)COC(=O)c1cccc(S(=O)(=O)N2CCOCC2)c1
  A: 12.6µM*; B: x; C: x; D: x; E: x; F: x
O=C(COC(=O)c1cccc(S(=O)(=O)N2CCN(c3ccccc3)CC2)c1)NCc1ccco1
  A: 44.7µM*; B: -19.3%; C: 0.8%; D: -3.7%; E: -3.9%; F: 27.6%
O=C(NCc1ccccc1Cl)C(=O)c1cn(CC(=O)N2CCOCC2)c2ccccc12
  A: 9.4%; B: 3.9%; C: -0.8%; D: x; E: x; F: x
Cc1ccc(CN2C(=O)c3ccccc3Sc3ccc(C(=O)NCc4ccco4)cc32)cc1
  A: -4.9%[59 µM]; B: x; C: -0.3%; D: x; E: x; F: 2.0%[46 µM]
CCCNC(=O)c1nc(C)n(-c2cc(Cl)ccc2Cl)n1
  A: 13.8%; B: -0.8%; C: -3.4%; D: 2.9%; E: -2.9%; F: -10.5%[46 µM]
Cc1nc(C(=O)O)nn1-c1cc(Cl)ccc1Cl
  A: 44.7µM*; B: 18.1%; C: -0.7%; D: 10.8%; E: -7.0%; F: -4.8%[46 µM]
CCOC(=O)CSc1nc2c(sc3ccccc32)c(=O)n1CCc1ccccc1
  A: -0.5%[59 µM]; B: x; C: 2.7%; D: x; E: x; F: 1.2%[46 µM]
O=S(=O)(Nc1nc2ccccc2nc1Nc1ccccc1Br)c1ccccc1
  A: 1.6%[59 µM]; B: x; C: -1.7%; D: x; E: x; F: x
CC1(C)CC(=O)C=C(N2CCN(C3=CC(=O)CC(C)(C)C3)CC2)C1
  A: -11.4%[59 µM]; B: -7.8%; C: 1.5%; D: 20µM*; E: 6.0%; F: 5.9%
CCCn1c(=O)n(-c2ccccc2)c(=O)c2sc3ccccc3c21
  A: -30.8%[59 µM]; B: x; C: -6.2%; D: x; E: x; F: x
CC(C)OC(=O)c1nnn(-c2nonc2N)c1CSc1ccccn1
  A: x; B: -21.5%; C: -10.2%; D: 2.24µM*; E: -0.1%; F: 20.0%
COC(=O)c1nnn(-c2nonc2N)c1CSc1ccccn1
  A: u; B: 18.3%; C: -4.8%; D: u; E: -2.3%; F: 7.4%
COc1ccc(NC(=O)c2c[nH]c(=O)n(-c3ccc(C)c(C)c3)c2=O)cc1OC
  A: -8.2%; B: 0.7%; C: -5.3%; D: u; E: -2.1%; F: x
COc1cccc(-n2c(=O)[nH]cc(C(=O)Nc3ccc(NC(C)=O)cc3)c2=O)c1
  A: 44.7µM*; B: -1.0%; C: -5.9%; D: 5.6%; E: 1.9%; F: -6.8%
CCOc1ccc(-n2c(N)c(C(=O)N3CCN(C)CC3)sc2=S)cc1
  A: 44.7µM*; B: 14.0%; C: -4.5%; D: -11.9%; E: -0.6%; F: -3.7%[46 µM]
C=CCn1c(N)c(C(=O)N2CCN(C)CC2)sc1=S
  A: -26.2%[59 µM]; B: -23.7%; C: -0.7%; D: -2.8%; E: -3.1%; F: -7.4%
Cc1ccc(-n2c(N)c(C(=O)N3CCN(C)CC3)sc2=S)cc1
  A: 2µM*; B: -93.4%; C: -6.3%; D: 22.4µM*; E: -5.4%; F: -2.2%
Cc1ccc(-n2c(N)c(C(=O)N3CCCCC3)sc2=S)cc1
  A: 8.91µM*; B: 44.7µM*; C: -29.4%; D: 10µM*; E: -18.6%; F: -30.0%
CSC(=N)N
  A: 18.8%[12.7 µM]; B: 20.8%; C: x; D: 9.7%; E: u; F: -7.0%
CCOC(=O)c1c(C)n(C)c2ccc(OCC(O)CN3C(=O)c4ccccc4S3(=O)=O)cc12 (stereo not drawn)
  A: -26.6%[59 µM]; B: 8.1%; C: 1.4%; D: 2.51µM*; E: 6.5%; F: -13.4%
CCOC(=O)c1c(C)n(C)c2ccc(OCC(O)Cn3nc(C)cc3C)cc12 (stereo not drawn)
  A: 17.2%[59 µM]; B: 11.0%; C: -3.2%; D: 3.4%; E: u; F: -7.4%
CCOc1ccc(S(=O)(=O)Nc2nc3ccccc3nc2Nc2ccc(N3CCOCC3)cc2)cc1
  A: 10µM*; B: -5.1%; C: -5.8%; D: 0.1%; E: u; F: u
CC(C)(C)c1ccc(OCCC(=O)OCC(=O)Nc2ccc(N3CCOCC3)cc2)cc1
  A: 44.7µM*; B: x; C: x; D: x; E: x; F: x
CCCCOc1ccc(C(=O)NCC(=O)N(C)CC(=O)Nc2ccc(N3CCOCC3)cc2)cc1
  A: 25.1µM*; B: x; C: x; D: x; E: x; F: x
COc1ccc(OCCC(=O)OCC(=O)Nc2ccc(S(=O)(=O)N3CCOCC3)cc2)cc1
  A: -4.8%; B: 14.6%; C: 0.3%; D: u; E: 0.7%; F: x
COc1ccccc1C(=O)NCCC(=O)N(C)CC(=O)Nc1ccc(N2CCOCC2)cc1
  A: 44.7µM*; B: x; C: x; D: x; E: x; F: x
COc1ccc(S(N)(=O)=O)cc1C(=O)N(C)CC(=O)Nc1ccc(N2CCOCC2)cc1
  A: x; B: 13.1%; C: 5.1%; D: x; E: x; F: x
Cc1cccc(CCNC(=O)c2nn(C)c3c2CSc2ccccc2-3)c1
  A: -27.9%[59 µM]; B: x; C: -6.0%; D: x; E: x; F: x

Whole records, quoted from the list. Values in the order: G9a inh, Sfp PPTase inh, miR-21 reporter, ALDH1A1 inh, KDM4E inh, LMNA splice mod
Cc1ccc(-n2c(N)c(C(=O)N3CCCCC3)sc2=S)cc1 is entered as 8.91µM*, 44.7µM*, -29.4%, 10µM*, -18.6%, -30.0%
CC(C)(C)c1ccc(OCCC(=O)OCC(=O)Nc2ccc(N3CCOCC3)cc2)cc1 is entered as 44.7µM*, x, x, x, x, x
COc1ccccc1C(=O)NCCC(=O)N(C)CC(=O)Nc1ccc(N2CCOCC2)cc1 is entered as 44.7µM*, x, x, x, x, x
